Experimental data as given in patent US20090130691A1, “SCREENING PROTEINASE MODULATORS USING A CHIMERIC PROTEIN AND SKI-I PROPROTEIN CONVERTASE SUBSTRATES AND INHIBITORS” (Institut de Recherches Cliniques de Montreal, priority 2005, published 2009).

Target: endogenous Furin-like PCs
Experiment: cell-based or functional assay

YISRRLL (modifications not checked) [dec-YISRRLL-cmk]
inhibition of proPDGF-A processing in HEK293 cells (Western blot of media): > 100 µM
